According to US20180360953A1 (priority 2015, published 2018):

Tested on: spleen cells
Format: cell-based, mice
Conditions: for CD138+CD19+IgG+ and CD138+CD19+IgA+ cells by intracellular staining / surface IgG and surface IgA on induced CD138+ CD19+ cells: spleen cells, 2 days culture

| Structure (SMILES) | frequency of CD138+ among CD19+ cells | frequency of myeloid cells (CD11b+) and B cells (CD19+) | CD138+CD19+IgG+ and CD138+CD19+IgA+ cells by intracellular staining | surface IgG and surface IgA on induced CD138+ CD19+ cells | frequency of T cell subsets |
| --- | --- | --- | --- | --- | --- |
| Cc1c(-c2ccnn2C)cc(C(=O)NCc2ccc(S(C)(=O)=O)cn2)c(=O)n1-c1cccc(C(F)(F)F)c1 [Alvelestat, alvelestat] | increased | not affected | further confirmed | expressed surface IgG or a low but significant percentage of surface IgA | – |
| CC(C)(C)C(=O)Oc1ccc(S(=O)(=O)Nc2ccccc2C(=O)NCC(=O)O)cc1 [Sivelestat, sivelestat] | increased | did not affect | confirmed induction | expressed surface IgG or a low but significant percentage expressed surface IgA | did not affect |
